This assay concerns the target CgiNAP2X1 (Magallana gigas, UniProt A0A8W8INI3). As to the kind of experiment: stopped-flow CO2 hydration assay. The settings on record: read-out: KIs [mM] ^2 / CgiNAP2X1; CO2 1.7-17 mM; 20 °C; pH 7.5 (table title), methods give 20 mM TRIS pH 8.3; 15 min preincubation. Type of assay: biochemical.

Protein sequences, listed by entry. Tags and fused reporters are not part of them. Residues count along the entry.
UniProt A0A8W8INI3, 23-318 limits assumed: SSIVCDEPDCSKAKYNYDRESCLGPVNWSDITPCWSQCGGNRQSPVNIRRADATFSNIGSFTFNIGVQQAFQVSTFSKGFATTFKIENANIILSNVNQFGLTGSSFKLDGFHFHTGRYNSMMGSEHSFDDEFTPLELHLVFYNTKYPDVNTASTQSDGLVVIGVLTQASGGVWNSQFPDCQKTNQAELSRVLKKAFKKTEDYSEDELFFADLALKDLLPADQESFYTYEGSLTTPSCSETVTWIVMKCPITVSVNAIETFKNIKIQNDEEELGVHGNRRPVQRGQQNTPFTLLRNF

Structures are written as SMILES.

Drawing on paper PMC5618409, “Sequence Analysis, Kinetic Constants, and Anion Inhibition Profile of the Nacrein-Like Protein (CgiNAP2X1) from the Pacific Oyster Magallana gigas (Ex-Crassostrea gigas)” (Marine Drugs, 2017), this text covers Ki for one compound.

On to `O=[As](O)(O)c1ccccc1`, for which the Ki worked out at 0.087 mM.
